Our source for the EC50 values is patent publication US20260152497A1, “MIDAZO[4,5-c]QUINOLINE-4-AMINE COMPOUNDS AND CONJUGATES THEREOF, THEIR PREPARATION, AND THEIR [sequence] APPLICATIONS” (SANOFI, priority 2021, published 2026).

By EC50 is commonly meant the midpoint of the concentration-response curve.

In experiment [1] the target is T1, human TLR7 (Homo sapiens, UniProt Q9NYK1).
T1 construct: host or cells: HEK293 (HEK-Blue hTLR7); engineered variants additionally transfected with tumor antigen genes
T1 sequence (Q9NYK1 27-1049): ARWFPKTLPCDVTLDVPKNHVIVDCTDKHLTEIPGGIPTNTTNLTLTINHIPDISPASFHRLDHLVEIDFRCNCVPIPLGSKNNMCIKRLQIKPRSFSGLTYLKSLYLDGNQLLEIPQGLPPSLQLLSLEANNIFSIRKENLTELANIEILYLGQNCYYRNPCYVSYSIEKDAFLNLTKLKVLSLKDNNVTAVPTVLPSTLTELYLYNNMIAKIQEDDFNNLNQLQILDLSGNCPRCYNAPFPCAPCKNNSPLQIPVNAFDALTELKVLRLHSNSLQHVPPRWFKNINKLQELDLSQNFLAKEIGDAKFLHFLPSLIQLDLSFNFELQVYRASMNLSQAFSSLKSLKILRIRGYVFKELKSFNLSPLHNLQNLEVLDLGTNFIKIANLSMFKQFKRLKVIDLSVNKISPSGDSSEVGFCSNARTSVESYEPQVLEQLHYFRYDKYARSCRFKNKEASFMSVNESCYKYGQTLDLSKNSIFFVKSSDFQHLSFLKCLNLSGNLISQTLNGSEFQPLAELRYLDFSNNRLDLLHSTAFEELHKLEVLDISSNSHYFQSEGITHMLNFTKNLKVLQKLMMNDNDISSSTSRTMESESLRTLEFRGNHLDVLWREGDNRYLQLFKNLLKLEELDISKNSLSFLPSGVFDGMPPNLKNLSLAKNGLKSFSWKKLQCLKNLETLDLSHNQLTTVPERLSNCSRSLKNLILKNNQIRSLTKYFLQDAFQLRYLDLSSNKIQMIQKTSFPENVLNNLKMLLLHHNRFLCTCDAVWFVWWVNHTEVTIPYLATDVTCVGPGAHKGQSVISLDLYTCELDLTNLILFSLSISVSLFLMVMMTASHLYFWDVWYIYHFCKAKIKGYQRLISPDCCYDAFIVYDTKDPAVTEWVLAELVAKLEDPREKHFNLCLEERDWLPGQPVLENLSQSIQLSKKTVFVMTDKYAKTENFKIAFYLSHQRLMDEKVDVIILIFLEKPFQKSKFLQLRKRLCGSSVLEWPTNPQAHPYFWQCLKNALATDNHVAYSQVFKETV
Nature of the experiment: TLR7 pathway activation, parental HEK-Blue hTLR7 reporter cells (SEAP). The class given is cell-based. The following applies: Table 1b, 96 hours, read-out: EC50 HEKBlue-hTLR7. How it is done:
(§1) The below tests involving measuring the in vitro activity of some compounds of the disclosure on human TLR7 pathway were carried out using parental HEK-Blue™ hTLR7 cells and engineered tumor antigen-expressing HEK-Blue™ hTLR7 cells respectively as reporter cells.
(§2) HEK-Blue™ hTLR7 Cells (#hkb-htlr7) and HEK-Blue™ hTLR8 Cells (#hkb-htlr8) cells from InvivoGen and the engineered tumor antigen expressing cells were used according to the manufacturer's instructions. The HEK-Blue™ hTLR7 and HEK-Blue™ hTLR8 cells were obtained by co-transfection of the hTLR7 or hTLR8 gene in HEK293 cells and an optimized Secreted Embryonic Alkaline Phosphatase (SEAP) reporter gene which is placed under the control of the IFN-β minimal promoter fused to five NF-κB and AP-1-binding sites. The human tumor antigen expressing HEK-Blue™ hTLR7 and hTLR8 cells were obtained by transfection of the tumor antigen genes in the parental cells followed by a polyclonal selection to enrich in cells overexpressing the tumor antigen. Stimulation with a TLR7/8 ligand activates NF-kB and AP-1 which induce the production of SLAP. The cells are seeded in 96-well plate at 3.10E4 cells/well and incubated 24 hours at 37C, 5% CO2 before adding the conjugates to be evaluated. The cells are subsequently incubated with 3-fold serial dilutions of each of the compounds (0.01 nM to 1 μM) for 96 hours at 37° C., 5% CO2. […]

For experiment [2], the target named is T1, human TLR7. The experiment can be described thus: TLR7 pathway activation, engineered tumor antigen-expressing HEK-Blue hTLR7 reporter cells (SEAP). The following applies: Table 1a, 96 hours, read-out: EC50 HEK-Blue-hTLR7-tumor Ag. The class given is cell-based. As for the experimental part:
as §1, §2

With “CEACAM5_Tusamitamab_N361C-PEG24-R848 ADC [Example 40]”, the EC50 at human TLR7 [1] is over 1000 nM.
For the substance “EGFR_cetuximab-PEG24-R848 ADC [Example 23]”, the 50% effective concentration (EC50) on human TLR7 [2] stood at 4.1 nM.
Turning to “CEACAM5_Tusamitamab_K320C-PEG24-R848 ADC [Example 37]”, the 50% effective concentration (EC50) at human TLR7 [1] was over 1000 nM.
